Molecular target: PKA type I regulatory subunit RIα, in H295R adrenal cells (human (endogenous in H295R)) (UniProt P10644)

Question: How did the residence of photoactivatable-mCherry PKAc at the site of photoactivation after 12.5 s in H295R cells with smAKAP-GFP and RIα-iRFP turn out when “V5-tagged PKAc-W196G, in H295R adrenal cells (enzyme)” was run?
Answer: 65%
